# Results taken from patent US20230233555A1 (AbbVie Inc., priority 2022, published 2023).
# System: bacteria
# Settings: in vitro
structure (smiles),measurement,value
"CC[C@@H]1CN(C(=O)NCC(F)(F)F)C[C@@H]1c1cnc2cnc3[nH]ccc3n12 [upadacitinib, (3S,4R)-3-Ethyl-4-(3H-imidazo[1,2-a]pyrrolo[2,3-e]pyrazin-8-yl)-N-(2,2,2-trifluoroethyl)pyrrolidine-1-carboxamide hydrate (2:1)]","Genotoxicity, bacterial mutagenicity (Ames)",tested negatively
